Test results taken from PubChem BioAssay (NCI).
The entries are a selection whose mix differs from that of the whole data set. Some tests of the compounds listed are not included; inactive here does not mean inactive elsewhere.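 Negative percent growth values reflect cell death: -40 means 40% of the cells present at the start died, and -100 means all died.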 Active and inactive are the calls of the source. How the source made its calls: active means growth percent below 10; inactive means the rest.

Tests used:
Test in all cases: NCI-60 one-dose screen, 48 h (100 = growth as untreated, 0 = no growth, -100 = all killed)
Conditions in all cases: 10 µM
HCT-15 colon = tested on: HCT-15 colon
HT29 colon = tested on: HT29 colon
SNB-75 CNS = tested on: SNB-75 CNS
SNB-19 CNS = tested on: SNB-19 CNS
U251 CNS = tested on: U251 CNS
PC-3 prostate = tested on: PC-3 prostate
SK-MEL-5 melanoma = tested on: SK-MEL-5 melanoma
UACC-62 melanoma = tested on: UACC-62 melanoma
LOX IMVI melanoma = tested on: LOX IMVI melanoma
SK-MEL-28 melanoma = tested on: SK-MEL-28 melanoma
SK-MEL-2 melanoma = tested on: SK-MEL-2 melanoma
EKVX NSCLC = tested on: EKVX NSCLC
SN12C renal = tested on: SN12C renal
UO-31 renal = tested on: UO-31 renal
TK-10 renal = tested on: TK-10 renal
ACHN renal = tested on: ACHN renal
CAKI-1 renal = tested on: CAKI-1 renal
A498 renal = tested on: A498 renal
HL-60(TB) leukemia = tested on: HL-60(TB) leukemia
CCRF-CEM leukemia = tested on: CCRF-CEM leukemia

Measured: growth

ClCCCCCC(CCl)NCCCl (stereo not drawn)
inactive: HCT-15 colon 91.8% | HT29 colon 89.7% | SNB-75 CNS 93% | SNB-19 CNS 94.8% | U251 CNS 76.6% | PC-3 prostate 73.3% | SK-MEL-5 melanoma 86.6% | UACC-62 melanoma 67.2% | LOX IMVI melanoma 68.2% | SK-MEL-28 melanoma 105% | SK-MEL-2 melanoma 112% | EKVX NSCLC 113% | SN12C renal 53.3% | UO-31 renal 75.8% | TK-10 renal 102% | ACHN renal 28.3% | CAKI-1 renal 51.5% | A498 renal 91.1% | HL-60(TB) leukemia 41.3% | CCRF-CEM leukemia 46.2%

COCc1c(CN(CCCl)CCCl)cnc(C)c1O
inactive: HCT-15 colon 116% | HT29 colon 97.4% | SNB-75 CNS 90.5% | SNB-19 CNS 100% | U251 CNS 96.9% | PC-3 prostate 82.1% | SK-MEL-5 melanoma 95.5% | UACC-62 melanoma 86.5% | LOX IMVI melanoma 83.6% | SK-MEL-28 melanoma 111% | SK-MEL-2 melanoma 110% | EKVX NSCLC 110% | SN12C renal 97.3% | UO-31 renal 94% | TK-10 renal 105% | ACHN renal 102% | CAKI-1 renal 92.7% | A498 renal 81.3% | HL-60(TB) leukemia 91.2% | CCRF-CEM leukemia 80%

ClCCN(CCCl)Cc1ccsc1Br
inactive: HCT-15 colon 90.5% | HT29 colon 87.1% | SNB-75 CNS 80.6% | SNB-19 CNS 98.9% | U251 CNS 69.6% | PC-3 prostate 69.8% | SK-MEL-5 melanoma 96.6% | UACC-62 melanoma 83.5% | LOX IMVI melanoma 66.5% | SK-MEL-28 melanoma 93.7% | SK-MEL-2 melanoma 106% | SN12C renal 74.6% | UO-31 renal 80.5% | TK-10 renal 117% | ACHN renal 82.8% | CAKI-1 renal 61.7% | A498 renal 61.6% | HL-60(TB) leukemia 33% | CCRF-CEM leukemia 23.3%

CN(CCBr)CCBr
inactive: HCT-15 colon 92.2% | HT29 colon 84% | SNB-75 CNS 82% | SNB-19 CNS 102% | U251 CNS 90.8% | PC-3 prostate 79.4% | SK-MEL-5 melanoma 100% | UACC-62 melanoma 88% | LOX IMVI melanoma 87.1% | SK-MEL-28 melanoma 99.7% | SK-MEL-2 melanoma 105% | SN12C renal 92.4% | UO-31 renal 88.8% | TK-10 renal 89.7% | ACHN renal 82.3% | CAKI-1 renal 70.4% | A498 renal 99.1% | HL-60(TB) leukemia 92% | CCRF-CEM leukemia 63.2%

COc1ccc([N+](=O)[O-])cc1CN(CCCl)CCCl
inactive: HCT-15 colon 97.2% | HT29 colon 89.4% | SNB-75 CNS 82.5% | SNB-19 CNS 105% | U251 CNS 88.4% | PC-3 prostate 92.5% | SK-MEL-5 melanoma 98.5% | UACC-62 melanoma 95.6% | LOX IMVI melanoma 81.9% | SK-MEL-28 melanoma 113% | SK-MEL-2 melanoma 122% | EKVX NSCLC 109% | SN12C renal 97.7% | UO-31 renal 87.9% | TK-10 renal 104% | ACHN renal 94.8% | CAKI-1 renal 72.5% | A498 renal 103% | HL-60(TB) leukemia 90.4% | CCRF-CEM leukemia 85.5%

BrCCN(CCBr)Cc1ccccc1
inactive: HCT-15 colon 103% | HT29 colon 93.6% | SNB-75 CNS 76.3% | SNB-19 CNS 118% | U251 CNS 106% | PC-3 prostate 84.5% | SK-MEL-5 melanoma 113% | UACC-62 melanoma 107% | LOX IMVI melanoma 107% | SK-MEL-28 melanoma 104% | SK-MEL-2 melanoma 109% | EKVX NSCLC 87.2% | SN12C renal 107% | UO-31 renal 93.4% | TK-10 renal 117% | ACHN renal 94.3% | HL-60(TB) leukemia 55% | CCRF-CEM leukemia 88.1%

CN(C)CCOC(=O)C(O)(c1ccccc1)c1ccccc1
inactive: HCT-15 colon 92.8% | HT29 colon 118% | SNB-75 CNS 93.1% | SNB-19 CNS 112% | U251 CNS 103% | PC-3 prostate 106% | SK-MEL-5 melanoma 108% | UACC-62 melanoma 106% | LOX IMVI melanoma 110% | SK-MEL-28 melanoma 112% | SK-MEL-2 melanoma 120% | EKVX NSCLC 114% | SN12C renal 106% | UO-31 renal 88.8% | TK-10 renal 117% | ACHN renal 101% | CAKI-1 renal 97.9% | A498 renal 126% | HL-60(TB) leukemia 92.5% | CCRF-CEM leukemia 114%

CC(C)(C)N(CCCl)CCCl
inactive: HCT-15 colon 92.5% | HT29 colon 86.3% | SNB-75 CNS 67.3% | SNB-19 CNS 101% | U251 CNS 89.9% | PC-3 prostate 98.3% | SK-MEL-5 melanoma 104% | UACC-62 melanoma 96.6% | LOX IMVI melanoma 102% | SK-MEL-28 melanoma 93.6% | SK-MEL-2 melanoma 96.4% | SN12C renal 98% | UO-31 renal 98% | TK-10 renal 95.8% | ACHN renal 91.4% | CAKI-1 renal 98.3% | A498 renal 110% | HL-60(TB) leukemia 85.2%

Fc1cccc(CN(CCCl)CCCl)c1
inactive: HCT-15 colon 95.6% | HT29 colon 92.1% | SNB-75 CNS 81.1% | SNB-19 CNS 105% | U251 CNS 92.1% | PC-3 prostate 80.5% | SK-MEL-5 melanoma 102% | UACC-62 melanoma 96% | LOX IMVI melanoma 84.4% | SK-MEL-28 melanoma 99% | SK-MEL-2 melanoma 102% | SN12C renal 87.5% | UO-31 renal 82.3% | TK-10 renal 99.4% | ACHN renal 86.4% | CAKI-1 renal 69.7% | A498 renal 90.1% | HL-60(TB) leukemia 84.8% | CCRF-CEM leukemia 70.6%

N#CC(C#N)=Cc1cccc(Br)c1
inactive: HCT-15 colon 112% | HT29 colon 112% | SNB-19 CNS 102% | U251 CNS 96.6% | PC-3 prostate 93.8% | SK-MEL-5 melanoma 98.9% | UACC-62 melanoma 101% | LOX IMVI melanoma 96.2% | SK-MEL-28 melanoma 110% | SK-MEL-2 melanoma 107% | EKVX NSCLC 96.7% | SN12C renal 102% | UO-31 renal 95.5% | TK-10 renal 111% | ACHN renal 108% | CAKI-1 renal 99.1% | A498 renal 94.1% | HL-60(TB) leukemia 95.8% | CCRF-CEM leukemia 95.1%

O=C(OCCN1CCCC1)C(O)(c1ccccc1)c1ccccc1
inactive: HCT-15 colon 113% | HT29 colon 106% | SNB-75 CNS 95.8% | SNB-19 CNS 99.8% | PC-3 prostate 93.1% | SK-MEL-5 melanoma 107% | UACC-62 melanoma 83.1% | LOX IMVI melanoma 99.9% | SK-MEL-28 melanoma 114% | SK-MEL-2 melanoma 94.8% | EKVX NSCLC 104% | SN12C renal 94.3% | TK-10 renal 96.7% | ACHN renal 107% | CAKI-1 renal 86% | A498 renal 107% | HL-60(TB) leukemia 141% | CCRF-CEM leukemia 101%

CCCN(CCCl)CCCl
inactive: HCT-15 colon 101% | HT29 colon 110% | SNB-75 CNS 71.5% | SNB-19 CNS 111% | U251 CNS 103% | PC-3 prostate 95.3% | SK-MEL-5 melanoma 105% | UACC-62 melanoma 95.7% | LOX IMVI melanoma 101% | SK-MEL-28 melanoma 104% | SK-MEL-2 melanoma 118% | SN12C renal 99.1% | UO-31 renal 93.2% | TK-10 renal 134% | ACHN renal 96.6% | CAKI-1 renal 90.4% | A498 renal 107% | HL-60(TB) leukemia 103%
